Experimental data: PubChem BioAssay AID2098 (Broad Institute, 2009)
This is a selection; strong and weak results do not stand in their true shares. Calls of active or inactive are those of the source.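 Rule for the calls: active = more than half of replicate wells show activity change below -50%, luminescence cut by over half; inconclusive = some wells, but at most half, below -50%; inactive = no replicate well below -50%.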

Assay: HSF1 inhibitors in luciferase reporter cells, primary screen, cell-based, NIH3T3, luminescence (AID 2098);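 note: luciferase reports HSF-1 transcriptional activity via heat shock element; 0% = median of DMSO wells and -100% = zero luminescence signal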
Conditions: NIH3T3-HGL HSE-luciferase, MG132-induced, luminescence 8 h; hits give low values; screened at 7.5 µM (by protocol)
In the case of `CCCCOc1ccc(C(=O)NCC2(N3CCCCC3)CCCCC2)cc1OC`, the activity change, negative = inhibition is reported as inactive: 2.03%. In the case of `Cc1cc(SC(NC(=O)c2ccccc2)C(Cl)(Cl)Cl)nc(C(C)C)n1` (stereo unspecified), the activity change, negative = inhibition is reported as inactive: 9.09%. With `CCOC(=O)Nc1ccc([As](=O)(O)O)c(O)c1` the activity change, negative = inhibition was inactive: -2.43%. In the case of `CCC(C)N(CC(C)C)C(=S)SC(NC(C)=O)C(Cl)(Cl)Cl` (stereo unspecified), the activity change, negative = inhibition is reported as inactive: 15.8%. With `CCOC(=O)c1ccc(NC(=O)C(C)(CCl)SC)cc1` (stereo unspecified) the activity change, negative = inhibition was inactive: 5.51%. For `O=C(OC1CN2CCC1CC2)c1cccc([N+](=O)[O-])c1` (stereo unspecified), the activity change, negative = inhibition was inactive: -1.42%. With `O=C(COc1ccccc1)OC1CN2CCC1CC2` (stereo unspecified) the activity change, negative = inhibition was inactive: 2.86%. With `O=C(Nc1ccncc1[N+](=O)[O-])c1ccc([N+](=O)[O-])cc1[N+](=O)[O-]` the activity change, negative = inhibition was inactive: -2.25%. In the case of `COP1(=S)c2c(C)nn(CCC#N)c2N=C(c2ccc(F)cc2)N1C` (stereo unspecified), the activity change, negative = inhibition is reported as inactive: -2.48%. For `CC(C)=N/N=C(\N)N[N+](=O)[O-]`, the activity change, negative = inhibition was inactive: -2.71%. In the case of `CN(C)C(=O)OCCc1n(C)cc[n+]1C`, the activity change, negative = inhibition is reported as inactive: -2.49%. With `CC1CCN(C(=O)Oc2c(Cl)cc(Cl)c3cccnc23)CC1` the activity change, negative = inhibition was inactive: 14.4%. In the case of `Nc1ccc([As](=O)(O)c2ccc(N)cc2)cc1`, the activity change, negative = inhibition is reported as inactive: 3.87%. For `C[N+]1=C2C=CC=CC=C2SC12C([N+](=O)[O-])=CC([N+](=O)[O-])=C[C-]2[N+](=O)[O-]` (stereo unspecified), the activity change, negative = inhibition was inactive: 13.6%. With `CCN(/C(=N/P(=O)(N1CCOCC1)N1CCOCC1)N1CCOCC1)c1ccc(OC)cc1` the activity change, negative = inhibition was inactive: -5.49%. With `CC(=O)N1C2C3N(C(C)=O)C1C1N(C(C)=O)C(C(N1C(C)=O)N3C(C)=O)N2C(C)=O` the activity change, negative = inhibition was inactive: -8.26%. In the case of `O=[N+]([O-])c1cccc2n[nH]nc12`, the activity change, negative = inhibition is reported as inactive: -4.31%. For `Cc1ccc(NP(=O)(Oc2ccccc2)Oc2ccccc2)nc1`, the activity change, negative = inhibition was inactive: 1.86%. In the case of `O=[N+]([O-])c1cc([N+](=O)[O-])c(CCNc2ccccc2)c([N+](=O)[O-])c1`, the activity change, negative = inhibition is reported as inactive: 16.1%. With `CCc1nc2c(n1)c1c(non1O)c1c2no[n+]1[O-]` the activity change, negative = inhibition was inactive: 147%. In the case of `COc1ccc(C2=NCC(CBr)S2)cc1` (stereo unspecified), the activity change, negative = inhibition is reported as inactive: -3.06%. With `O=[N+]([O-])c1cccc(NC2=NCC(CBr)S2)c1` (stereo unspecified) the activity change, negative = inhibition was inactive: -2.8%. In the case of `O=C(O)CNc1ccc([As](=O)(O)O)cc1`, the activity change, negative = inhibition is reported as inactive: 0.994%. With `CC(C)(C)C(=O)NC(Sc1ccncn1)C(Cl)(Cl)Cl` (stereo unspecified) the activity change, negative = inhibition was inactive: -8.17%. For `O=[N+]([O-])c1ncn(CCn2ncnc2[N+](=O)[O-])n1`, the activity change, negative = inhibition was inactive: -4.22%. In the case of `O=C(Nc1cc([As](=O)(O)O)ccc1O)c1ccccc1`, the activity change, negative = inhibition is reported as inactive: -3.71%. With `CCN(N=Nc1nonc1N)c1nonc1N` the activity change, negative = inhibition was inactive: -3.18%. With `Nc1cccc2ccc([As](=O)(O)O)cc12` the activity change, negative = inhibition was inactive: -5.46%. In the case of `O=[N+]([O-])c1cc([N+](=O)[O-])c(CCN2CCOCC2)c([N+](=O)[O-])c1`, the activity change, negative = inhibition is reported as inactive: 5.29%. For `CCOP(=O)(Nc1ccccc1)OCC`, the activity change, negative = inhibition was inactive: -0.264%. In the case of `Cc1cc(SC(NC(=O)c2ccc(F)cc2)C(Cl)(Cl)Cl)ncn1` (stereo unspecified), the activity change, negative = inhibition is reported as inactive: -2.54%. With `CN(C(=O)Cc1ccc(Cl)c(Cl)c1)[C@H]1CCCC[C@@H]1N1CCCC1` the activity change, negative = inhibition was inactive: -5.69%. For `Cc1ccc(NP(=O)(Oc2ccccc2F)Oc2ccccc2F)nc1`, the activity change, negative = inhibition was inactive: 0.618%. In the case of `O=C(O)c1ccccc1[As](=O)(O)O`, the activity change, negative = inhibition is reported as inactive: -0.611%. For `CC(=O)Nc1ccc([As](=O)(O)O)cc1`, the activity change, negative = inhibition was inactive: 3.08%. For `O=P(Nc1nc2ccc(Cl)cc2s1)(c1ccccc1)c1ccccc1`, the activity change, negative = inhibition was inactive: 24.8%. In the case of `CC(C)CC(=O)NC(Sc1ccc(Cl)cc1)C(Cl)(Cl)Cl` (stereo unspecified), the activity change, negative = inhibition is reported as inactive: 7.81%. With `Nc1cc(N)c2nonc2c1[N+](=O)[O-]` the activity change, negative = inhibition was inactive: -3.08%. In the case of `Oc1ccccc1CNc1ccccn1`, the activity change, negative = inhibition is reported as inactive: 7.14%. For `Cc1c2non([O-])c-2c(C)[n+](=O)[n+]1[O-]`, the activity change, negative = inhibition was inactive: -10.4%. With `O=C(NC(Sc1ccncn1)C(Cl)(Cl)Cl)c1ccccc1` (stereo unspecified) the activity change, negative = inhibition was inactive: 2.94%. With `COc1ccccc1OP(=O)(Nc1ccc(C)cn1)Oc1ccccc1OC` the activity change, negative = inhibition was inactive: 4.87%. In the case of `Cc1ccc(OP(=O)(Nc2nccs2)Oc2ccc(C)cc2)cc1`, the activity change, negative = inhibition is reported as inactive: 0.411%. For `Clc1ccc(Cl)c(NC2=NCC(CBr)S2)c1` (stereo unspecified), the activity change, negative = inhibition was inactive: -1.01%. For `CN1CCCC(OC(=O)C(c2ccccc2)c2ccccc2)C1` (stereo unspecified), the activity change, negative = inhibition was inactive: -6.53%. For `NC(=O)c1cc([N+](=O)[O-])cc([N+](=O)[O-])c1N`, the activity change, negative = inhibition was inactive: -5.21%. For `Cc1ccc(N/C(=N/P(=O)(N2CCOCC2)N2CCOCC2)N2CCOCC2)cc1`, the activity change, negative = inhibition was inactive: -4.31%. For `CC(=O)Nc1ccc([As](=O)(O)O)c(O)c1`, the activity change, negative = inhibition was inactive: -6.9%. With `CC(=O)Nc1ccc(Oc2c([N+](=O)[O-])cc([N+](=O)[O-])cc2[N+](=O)[O-])cc1` the activity change, negative = inhibition was inactive: -6.78%. With `CC(=O)c1ccc(N2CC2c2ccncc2)cc1` (stereo unspecified) the activity change, negative = inhibition was inactive: -4.01%. For `C[C@@H]1C=CCP(=O)(Oc2ccccc2)O1` (stereo partly specified), the activity change, negative = inhibition was inactive: -2.55%. In the case of `C[C@H]1OP(=O)(Oc2ccccc2)C[C@@H]2O[C@@H]21` (stereo partly specified), the activity change, negative = inhibition is reported as inactive: -11.7%. In the case of `CC(C)(C)C(=O)NC(Sc1ccccc1)C(Cl)(Cl)Cl` (stereo unspecified), the activity change, negative = inhibition is reported as inactive: -2.41%. With `O=P1(Nc2nc3ccc(Cl)cc3s2)COc2ccccc2O1` (stereo unspecified) the activity change, negative = inhibition was inactive: 7.65%. In the case of `CCOc1ccc(C2=NCC(CBr)S2)cc1` (stereo unspecified), the activity change, negative = inhibition is reported as inactive: -2.72%. In the case of `Cc1ccccc1OP(=O)(Nc1ccccn1)Oc1ccccc1C`, the activity change, negative = inhibition is reported as inactive: 2.25%. In the case of `CN(C)C(=O)Oc1noc2ccccc12`, the activity change, negative = inhibition is reported as inactive: -4.35%. For `COC(=O)c1cc2c(s1)N=C(c1ccccc1)N(C)P2(=O)N1CCOCC1` (stereo unspecified), the activity change, negative = inhibition was inactive: -8.41%. For `CC(=O)NC(SC(=S)N(CC(C)C)CC(C)C)C(Cl)(Cl)Cl` (stereo unspecified), the activity change, negative = inhibition was inactive: -0.635%. With `Cc1ccc(OP(=O)(Nc2ccccn2)Oc2ccc(C)cc2)cc1` the activity change, negative = inhibition was inactive: 0.658%. For `O=C(OC1CN2CCC1CC2)c1ccccc1` (stereo unspecified), the activity change, negative = inhibition was inactive: -1.38%. In the case of `CCC(=O)N1C2C3N(C(=O)CC)C1C1N(C(=O)CC)C(C(N1C(=O)CC)N3C(=O)CC)N2C(=O)CC`, the activity change, negative = inhibition is reported as inactive: 7.9%. With `O=C(NC1CCS(=O)(=O)C1)NP(=S)(Oc1ccccc1)Oc1ccccc1` (stereo unspecified) the activity change, negative = inhibition was inactive: -4.22%. For `CCNC(=S)/N=C(\N)N[N+](=O)[O-]`, the activity change, negative = inhibition was inactive: 9.7%. With `c1ccc(-c2nn[nH]n2)c(-c2nn[nH]n2)c1` the activity change, negative = inhibition was inactive: -1.83%. With `Cc1ccc(NP(=O)(Oc2cccc(C)c2)Oc2cccc(C)c2)nc1` the activity change, negative = inhibition was inactive: -7.73%. In the case of `CCOC(=O)NC(Sc1ccccc1)C(Cl)(Cl)Cl` (stereo unspecified), the activity change, negative = inhibition is reported as inactive: 8.22%. In the case of `Nc1ccc([As](=O)(O)c2ccc([N+](=O)[O-])cc2)cc1`, the activity change, negative = inhibition is reported as inactive: -0.436%. In the case of `C(Cc1nn[nH]n1)Cc1nn[nH]n1`, the activity change, negative = inhibition is reported as inactive: -4.99%. With `O=C(OC1CN2CCC1CC2)c1cccc(Cl)c1` (stereo unspecified) the activity change, negative = inhibition was active: -53.7%. For `CC(=O)NC(SC(=S)N(C)C)C(Cl)(Cl)Cl` (stereo unspecified), the activity change, negative = inhibition was inactive: -1.57%. With `O=[N+]([O-])c1ncn(CCn2cnc([N+](=O)[O-])n2)n1` the activity change, negative = inhibition was inactive: -2.87%. In the case of `O=[N+]([O-])c1ccc(O)c(/C=N/Nc2ccc([N+](=O)[O-])cc2[N+](=O)[O-])c1`, the activity change, negative = inhibition is reported as inactive: -8.57%. With `O=[As](O)(c1ccccc1)c1ccc(O)cc1` the activity change, negative = inhibition was inactive: -5.53%. In the case of `O=P(Nc1nc2ccccc2s1)(c1ccccc1)c1ccccc1`, the activity change, negative = inhibition is reported as inactive: 12%. For `C[C@H]1OP(=O)(Oc2ccccc2)[C@H](O)[C@H](O)[C@H]1N=[N+]=[N-]` (stereo partly specified), the activity change, negative = inhibition was inactive: -1.79%. With `CN(C)C1(CNC(=O)c2ccc(Cl)c(S(N)(=O)=O)c2)CCCCC1` the activity change, negative = inhibition was inactive: 0.663%. With `O=P(Nc1ccccn1)(c1ccc(Br)cc1)c1ccc(Br)cc1` the activity change, negative = inhibition was inactive: -6.04%. With `c1nnnn1CCn1cnnn1` the activity change, negative = inhibition was inactive: -1.63%. In the case of `O=P(Nc1nccs1)(c1ccccc1)c1ccccc1`, the activity change, negative = inhibition is reported as inactive: -7.68%. In the case of `CC(C)C(=O)NC(Sc1ccccc1)C(Cl)(Cl)Cl` (stereo unspecified), the activity change, negative = inhibition is reported as inactive: -35.2%.
